Protein sequences, listed by entry. Tags and fused reporters are not part of them.
UniProt P09619, whole entry: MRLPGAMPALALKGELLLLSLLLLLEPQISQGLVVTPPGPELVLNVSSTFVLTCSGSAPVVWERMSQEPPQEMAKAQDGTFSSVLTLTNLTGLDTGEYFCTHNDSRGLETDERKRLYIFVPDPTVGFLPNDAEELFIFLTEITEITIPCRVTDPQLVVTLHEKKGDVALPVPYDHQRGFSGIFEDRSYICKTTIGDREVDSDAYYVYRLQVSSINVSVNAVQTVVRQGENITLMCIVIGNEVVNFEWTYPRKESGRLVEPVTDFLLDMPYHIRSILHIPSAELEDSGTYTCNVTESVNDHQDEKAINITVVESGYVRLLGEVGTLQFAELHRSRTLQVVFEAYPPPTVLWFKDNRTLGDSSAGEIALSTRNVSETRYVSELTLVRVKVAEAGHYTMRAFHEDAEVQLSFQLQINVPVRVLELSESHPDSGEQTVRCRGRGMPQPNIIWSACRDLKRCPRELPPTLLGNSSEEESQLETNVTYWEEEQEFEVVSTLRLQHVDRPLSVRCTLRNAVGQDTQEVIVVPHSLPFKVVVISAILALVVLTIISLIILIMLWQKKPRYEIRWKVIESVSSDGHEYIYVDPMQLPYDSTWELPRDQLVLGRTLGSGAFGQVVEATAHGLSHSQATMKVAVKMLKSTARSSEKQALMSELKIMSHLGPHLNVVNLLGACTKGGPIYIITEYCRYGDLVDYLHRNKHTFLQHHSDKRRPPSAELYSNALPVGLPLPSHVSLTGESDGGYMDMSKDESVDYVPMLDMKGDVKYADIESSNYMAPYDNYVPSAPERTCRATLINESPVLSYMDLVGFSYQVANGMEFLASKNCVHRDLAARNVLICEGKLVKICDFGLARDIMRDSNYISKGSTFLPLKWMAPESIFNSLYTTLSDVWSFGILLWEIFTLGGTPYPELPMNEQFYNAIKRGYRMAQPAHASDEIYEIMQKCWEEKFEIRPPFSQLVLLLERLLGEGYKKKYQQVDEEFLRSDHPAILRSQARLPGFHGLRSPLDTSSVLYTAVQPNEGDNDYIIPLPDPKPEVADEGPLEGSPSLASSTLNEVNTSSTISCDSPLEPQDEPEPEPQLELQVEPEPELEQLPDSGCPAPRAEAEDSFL

In BindingDB's records for doi:10.1016/j.bmc.2009.08.044 (Duquesne University, 2009):

How the values were obtained:
[1] = target: T1, Dihydrofolate reductase (Pneumocystis carinii, UniProt P16184)
T1 sequence (P16184 whole entry): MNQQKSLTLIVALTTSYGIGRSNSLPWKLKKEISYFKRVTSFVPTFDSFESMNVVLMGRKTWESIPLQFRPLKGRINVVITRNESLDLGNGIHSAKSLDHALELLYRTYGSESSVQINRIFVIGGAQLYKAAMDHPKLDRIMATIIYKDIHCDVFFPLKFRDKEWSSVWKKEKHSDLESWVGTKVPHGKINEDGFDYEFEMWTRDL

[2] = target: Platelet-derived growth factor receptor beta (Homo sapiens, UniProt P09619); experiment: cell-based

Row | IC50 [2] [µM] | SMILES | IC50 [1] [µM]
1 |  | CCCC(Cc1coc2nc(N)nc(N)c12)c1ccccc1OC (racemic) [2,4-diaminofuro[2,3-d]pyrimidine, 8] | 42.5
2 |  | CCCCC(Cc1coc2nc(N)nc(N)c12)c1ccccc1OC (racemic) [2,4-diaminofuro[2,3-d]pyrimidine, 11] | 30.9
3 | 17.8 | CCC/C(=C/c1coc2nc(N)nc(N)c12)c1ccccc1OC [E/Z ratio=2:1] | 
